{"sequences": {"note": "Protein sequences, listed by entry. Tags and fused reporters are not part of them. Residues count along the entry.", "UniProt P00797, 67-406": "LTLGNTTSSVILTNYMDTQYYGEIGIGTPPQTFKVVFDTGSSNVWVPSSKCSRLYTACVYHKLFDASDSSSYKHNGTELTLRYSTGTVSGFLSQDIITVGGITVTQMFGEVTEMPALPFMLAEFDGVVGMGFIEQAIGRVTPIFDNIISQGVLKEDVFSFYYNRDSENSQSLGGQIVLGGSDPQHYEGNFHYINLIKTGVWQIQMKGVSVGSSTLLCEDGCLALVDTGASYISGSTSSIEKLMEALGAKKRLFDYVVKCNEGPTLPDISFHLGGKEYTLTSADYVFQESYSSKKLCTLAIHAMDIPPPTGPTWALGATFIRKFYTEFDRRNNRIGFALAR"}, "source": "patent US8211885B2", "about": "“Cyclic indole-3-carboxamides, their preparation and their use as pharmaceuticals” (Sanofi-Aventis, priority 2008, dated 2012)", "molecular_target": "Recombinant human renin (Homo sapiens, UniProt P00797)", "experiment": "Inhibition of renin (fluorogenic peptide substrate)", "details": "read-out: IC50 values for inhibition of renin (fluorogenic peptide substrate); renin 5 nM, substrate Dabcyl-γ-Abu-[…]-EDANS 10 μM, 2 h room temperature, Tris buffer pH 8; compounds tested as the obtained salt", "data": [{"smiles": "CC1CN(C(=O)c2c(Oc3ccccc3)n(-c3ccccc3)c3ccccc23)CCN1", "note": "(stereo not shown) [Example 123]", "values": [{"measurement": "IC50", "value": 6.5, "unit": "µM"}]}]}
